{"source": "patent US7989589B2", "about": "“Compstatin analogs with improved activity” (The Trustees Of The University Of Pennsylvania, priority 2002, dated 2011)", "origin": "cited, not measured here", "tested_on": "complement activation", "conditions": "in vivo animal models; cited from earlier work", "data": [{"substance": "5G1.1-scFv: humanized monoclonal anti-C5 antibody [Peptide 5G1.1-scFv]", "values": [{"measurement": "suppression of complement activation", "value": "suppress complement activation in in vivo animal models"}]}]}
